1 molecule from US5990096A (priority 1992, dated 1999) can be followed below.

For the data set the following is noted: human, in vivo.

Where two headings read alike, the source gives them in different places.

Take `O=C(O)Cc1ccccc1Nc1c(Cl)cccc1Cl` [V]: the Diclofenac concentration result was “ND (key: ND: NONE DETECTED (>5.0 ng ml^-1))”. Moreover, the Diclofenac concentration entry (topical_or_ocular, 15 min) is on record as “ND (key: ND: NONE DETECTED (>5.0 ng ml^-1))”. Further, the Diclofenac concentration entry (topical_or_ocular, 30 min) is given as “ND (key: ND: NONE DETECTED (>5.0 ng ml^-1))”. In addition, the Diclofenac concentration entry (topical_or_ocular, 180 min) is reported as “ND (key: ND: NONE DETECTED (>5.0 ng ml^-1))”. Also, for the setting “topical_or_ocular, 240 min”, the Diclofenac concentration result was “ND (key: ND: NONE DETECTED (>5.0 ng ml^-1))”. Also, for the setting “topical_or_ocular, 360 min”, the Diclofenac concentration result is listed as “ND (key: ND: NONE DETECTED (>5.0 ng ml^-1))”. In addition, under “topical_or_ocular, 480 min”, the Diclofenac concentration entry was “ND (key: ND: NONE DETECTED (>5.0 ng ml^-1))”. Besides, where the note is “topical_or_ocular, 600 min”, the Diclofenac concentration result is “ND (key: ND: NONE DETECTED (>5.0 ng ml^-1))”. Besides, the Diclofenac concentration result (topical_or_ocular, 720 min) was “ND (key: ND: NONE DETECTED (>5.0 ng ml^-1))”.
